Assay results: patent EP0587106B1, “Compositions containing lipophilic salts having neutron activable cations” (VECTORPHARMA INTERNATIONAL S.p.A., priority 1992, dated 1994)

Test: Solubility test at 24 hours, determined via complex-formation with xylenol orange

Structure (SMILES)	Solubility (pH=1.2, lipophilic salt as it is, 1440 min) [µg/mL]	Solubility (pH=3.0, lipophilic salt as it is, 1440 min) [µg/mL]	Solubility (pH=5.2, lipophilic salt as it is) [µg/mL]	Solubility (pH=7.0, lipophilic salt as it is) [µg/mL]	solubility at 24 h (pH 1.2, Solubility, pH=1.2, lipophilic salt as it is) [µg/mL]	solubility at 24 h (pH 3, Solubility, pH=3.0, lipophilic salt as it is) [µg/mL]	solubility at 24 h (pH 5.2, Solubility, pH=5.2, lipophilic salt as it is) [µg/mL]	solubility at 24 h (pH 7, Solubility, pH=7.0, lipophilic salt as it is) [µg/mL]
CCCCCCCCCCCC(=O)O [Ytterbium laurate, ytterbium laurate]	430	56	<2	<2				
CCCCCCCCCCCC(=O)O [Samarium laurate, samarium laurate]					220	47	< 2	< 2
